Laboratory results: ChEMBL document CHEMBL3588792, “Selective Acetamidine-Based Nitric Oxide Synthase Inhibitors: Synthesis, Docking, and Biological Studies” (ACS Med Chem Lett, 2015)

Target: T1, Nitric oxide synthase 3 (Bos taurus, UniProt P29473)
T1 sequence (P29473 whole entry): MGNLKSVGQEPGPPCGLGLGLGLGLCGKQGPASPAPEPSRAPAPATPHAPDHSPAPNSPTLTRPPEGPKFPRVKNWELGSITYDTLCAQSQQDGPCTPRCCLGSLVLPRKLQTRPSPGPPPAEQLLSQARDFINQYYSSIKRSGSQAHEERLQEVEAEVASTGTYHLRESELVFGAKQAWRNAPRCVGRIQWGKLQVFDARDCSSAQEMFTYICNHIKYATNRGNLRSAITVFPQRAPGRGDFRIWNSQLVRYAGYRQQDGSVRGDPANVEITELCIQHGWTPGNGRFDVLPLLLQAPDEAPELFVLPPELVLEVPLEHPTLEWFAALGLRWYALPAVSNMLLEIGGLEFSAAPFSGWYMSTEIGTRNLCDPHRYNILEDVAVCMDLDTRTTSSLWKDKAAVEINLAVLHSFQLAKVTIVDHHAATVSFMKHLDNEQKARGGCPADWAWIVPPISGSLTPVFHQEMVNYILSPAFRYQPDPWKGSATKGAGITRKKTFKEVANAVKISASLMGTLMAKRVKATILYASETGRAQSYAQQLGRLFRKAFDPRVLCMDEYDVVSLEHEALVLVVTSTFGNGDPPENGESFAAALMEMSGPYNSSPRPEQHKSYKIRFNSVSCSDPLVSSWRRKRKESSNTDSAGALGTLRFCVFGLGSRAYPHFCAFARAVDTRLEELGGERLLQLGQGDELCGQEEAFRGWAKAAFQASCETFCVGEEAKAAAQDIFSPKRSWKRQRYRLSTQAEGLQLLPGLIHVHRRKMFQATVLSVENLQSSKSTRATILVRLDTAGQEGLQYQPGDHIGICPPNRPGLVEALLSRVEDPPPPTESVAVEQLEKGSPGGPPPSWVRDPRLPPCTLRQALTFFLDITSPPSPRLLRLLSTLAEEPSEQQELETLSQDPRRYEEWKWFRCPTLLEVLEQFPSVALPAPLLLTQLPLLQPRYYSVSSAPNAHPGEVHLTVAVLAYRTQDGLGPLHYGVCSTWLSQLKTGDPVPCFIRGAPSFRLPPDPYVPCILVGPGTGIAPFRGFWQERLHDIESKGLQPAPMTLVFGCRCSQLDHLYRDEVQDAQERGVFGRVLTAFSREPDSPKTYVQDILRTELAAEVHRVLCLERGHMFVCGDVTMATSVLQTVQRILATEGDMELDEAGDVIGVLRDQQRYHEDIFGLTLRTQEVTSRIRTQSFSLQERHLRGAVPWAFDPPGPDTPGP
Assay: Inhibition of bovine recombinant eNOS using [3H]L-arginine substrate assessed as formation of [3H]L-citruline by liquid scintillation counting analysis
Procedure, shortened: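 Recombinant enzyme inhibition was read as [3H]L-citrulline formed from [3H]L-arginine. Each inhibitor was tested at seven concentrations in triplicate, with IC50 given as mean ± SD. Selectivity is the eNOS IC50 divided by the iNOS IC50.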

IC50: 350 µM
SMILES: CC(=N)NCc1cccc(CN)c1 [1400W]
